Molecular target: human MRGPRX2 (Homo sapiens, UniProt Q96LB1)
Assay: In vitro target binding assay: BRET between MRGPRX2-Nluc and Venus-β-arrestin1 in transfected HEK-293T cells, antagonist mode against agonist R-ZINC-3573 (EC80)
Conditions: antagonism of agonist R-ZINC-3573 at EC80, net BRET

Protein sequences, listed by entry. Tags and fused reporters are not part of them.
UniProt Q96LB1, whole entry: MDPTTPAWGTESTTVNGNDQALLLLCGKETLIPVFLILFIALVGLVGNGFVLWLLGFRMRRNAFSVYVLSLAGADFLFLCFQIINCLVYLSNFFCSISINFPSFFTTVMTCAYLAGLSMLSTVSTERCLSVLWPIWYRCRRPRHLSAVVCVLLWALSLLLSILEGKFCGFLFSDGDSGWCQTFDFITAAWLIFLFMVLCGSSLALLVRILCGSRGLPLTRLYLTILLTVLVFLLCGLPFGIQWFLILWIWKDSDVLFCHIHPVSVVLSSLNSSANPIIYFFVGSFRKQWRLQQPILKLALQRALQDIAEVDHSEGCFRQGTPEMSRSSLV

IC50: 100 to 1000 nM
Structure (SMILES): COc1c(-c2ccc(S(=O)(=O)N3CC(F)(F)C3)cc2)c(F)cc2c(=O)c(C(=O)O)cn(C3CC3)c12

— patent EP4834881A1, “QUINOLONE COMPOUNDS AND USE THEREOF” (dated 2026)
